Source: US20170319545A1, “METHOD FOR CONTROLLING SKIN PENETRATION” (AJINOMOTO CO., INC., priority 2015, published 2017)

System: mouse fibroblast 10T1/2 cells
Assay: Cytotoxicity test (cell counting kit-8)
Details: 0.01-50 mM, exposed 20 hr, control as 1 (FIG. 21)

proline-tetrabutylphosphonium salt
cytotoxicity (specific survival rate): very high cytotoxicity
